Data published in PubChem BioAssay AID651687 (Broad Institute, 2012).
Only a part is listed here, and it is no random draw. The source made the active and inactive calls.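 How the source made its calls: active means every replicate shows inhibition of at least 40%; inconclusive means mean inhibition at least 40% but some replicate below; inactive means the rest.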

Test: inhibitors of PGC1a acetylation signal, primary screen, cell-based, U2OS, AlphaScreen, inhibitor mode (AID 651687);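 further: 0% = neutral control wells and 100% = positive control wells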
Conditions: AlphaScreen anti-acetyl-lysine, at 15.6 µM, active compounds read high, with virally co-expressed GCN5 acetyltransferase

Structure (SMILES) | inhibition
CCC(=O)N(c1ccccc1)C1(COC)CCN(CCn2nnn(CC)c2=O)CC1 | inactive: 2.65%
CCC(=O)N(c1ccccc1)C1(COC)CCN(CCc2cccs2)CC1 | inactive: 8.47%
